Literature values as cited in PMC7565988, “Insight into the Anticancer Activity of Copper(II) 5-Methylenetrimethylammonium-Thiosemicarbazonates and Their Interaction with Organic Cation Transporters” (Biomolecules, 2020).

Molecular target: T1, OCT2 (Homo sapiens, UniProt O15244)
T1 construct: expressed in transfected cells
T1 sequence (O15244 1-555): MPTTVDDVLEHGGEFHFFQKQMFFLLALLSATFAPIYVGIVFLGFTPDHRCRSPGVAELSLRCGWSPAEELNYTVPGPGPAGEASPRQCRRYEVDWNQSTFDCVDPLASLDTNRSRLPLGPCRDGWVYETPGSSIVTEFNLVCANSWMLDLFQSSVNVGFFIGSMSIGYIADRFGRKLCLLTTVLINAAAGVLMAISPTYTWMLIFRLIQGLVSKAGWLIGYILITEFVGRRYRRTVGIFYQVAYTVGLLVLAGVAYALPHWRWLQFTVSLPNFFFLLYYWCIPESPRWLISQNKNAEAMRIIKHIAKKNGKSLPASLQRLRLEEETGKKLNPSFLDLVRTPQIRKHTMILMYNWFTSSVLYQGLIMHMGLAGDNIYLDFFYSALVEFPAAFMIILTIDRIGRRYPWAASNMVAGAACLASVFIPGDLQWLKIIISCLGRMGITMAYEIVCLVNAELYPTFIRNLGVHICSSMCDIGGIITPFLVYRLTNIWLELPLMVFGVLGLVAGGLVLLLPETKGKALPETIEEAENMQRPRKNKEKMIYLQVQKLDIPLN
Set-up: method as in PMID 14576340
Conditions: reference inhibitor; cited from earlier work

Question: Which IC50 does the source give for `COc1cc2nc(N3CCN(C(=O)c4ccco4)CC3)nc(N)c2cc1OC` [Prazosin] here?
Answer: > 100 µM
